Data published in article PMC11968843.

Protein sequences, listed by entry. Tags and fused reporters are not part of them.
UniProt Q86TI2, whole entry: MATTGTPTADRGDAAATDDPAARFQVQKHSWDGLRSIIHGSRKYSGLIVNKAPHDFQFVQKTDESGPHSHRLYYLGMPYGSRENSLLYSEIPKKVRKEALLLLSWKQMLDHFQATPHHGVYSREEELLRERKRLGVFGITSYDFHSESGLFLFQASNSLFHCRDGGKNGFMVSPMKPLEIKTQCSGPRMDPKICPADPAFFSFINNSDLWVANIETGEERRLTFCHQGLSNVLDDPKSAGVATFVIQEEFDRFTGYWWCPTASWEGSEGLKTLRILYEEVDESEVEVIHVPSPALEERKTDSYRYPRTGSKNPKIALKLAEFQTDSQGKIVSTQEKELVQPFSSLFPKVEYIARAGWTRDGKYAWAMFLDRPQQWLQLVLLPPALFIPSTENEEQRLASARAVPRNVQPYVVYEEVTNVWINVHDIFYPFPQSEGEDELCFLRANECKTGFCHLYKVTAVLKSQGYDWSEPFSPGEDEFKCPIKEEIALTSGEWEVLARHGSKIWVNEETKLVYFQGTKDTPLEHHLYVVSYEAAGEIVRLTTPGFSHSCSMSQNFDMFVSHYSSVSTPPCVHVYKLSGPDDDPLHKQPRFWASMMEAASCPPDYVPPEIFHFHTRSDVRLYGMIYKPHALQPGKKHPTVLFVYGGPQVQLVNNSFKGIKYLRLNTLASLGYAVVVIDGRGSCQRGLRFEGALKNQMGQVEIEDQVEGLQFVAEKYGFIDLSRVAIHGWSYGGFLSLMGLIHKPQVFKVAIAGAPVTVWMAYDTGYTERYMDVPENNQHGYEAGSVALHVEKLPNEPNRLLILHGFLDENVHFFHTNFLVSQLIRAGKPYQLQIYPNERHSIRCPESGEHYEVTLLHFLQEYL
UniProt Q6V1X1, whole entry: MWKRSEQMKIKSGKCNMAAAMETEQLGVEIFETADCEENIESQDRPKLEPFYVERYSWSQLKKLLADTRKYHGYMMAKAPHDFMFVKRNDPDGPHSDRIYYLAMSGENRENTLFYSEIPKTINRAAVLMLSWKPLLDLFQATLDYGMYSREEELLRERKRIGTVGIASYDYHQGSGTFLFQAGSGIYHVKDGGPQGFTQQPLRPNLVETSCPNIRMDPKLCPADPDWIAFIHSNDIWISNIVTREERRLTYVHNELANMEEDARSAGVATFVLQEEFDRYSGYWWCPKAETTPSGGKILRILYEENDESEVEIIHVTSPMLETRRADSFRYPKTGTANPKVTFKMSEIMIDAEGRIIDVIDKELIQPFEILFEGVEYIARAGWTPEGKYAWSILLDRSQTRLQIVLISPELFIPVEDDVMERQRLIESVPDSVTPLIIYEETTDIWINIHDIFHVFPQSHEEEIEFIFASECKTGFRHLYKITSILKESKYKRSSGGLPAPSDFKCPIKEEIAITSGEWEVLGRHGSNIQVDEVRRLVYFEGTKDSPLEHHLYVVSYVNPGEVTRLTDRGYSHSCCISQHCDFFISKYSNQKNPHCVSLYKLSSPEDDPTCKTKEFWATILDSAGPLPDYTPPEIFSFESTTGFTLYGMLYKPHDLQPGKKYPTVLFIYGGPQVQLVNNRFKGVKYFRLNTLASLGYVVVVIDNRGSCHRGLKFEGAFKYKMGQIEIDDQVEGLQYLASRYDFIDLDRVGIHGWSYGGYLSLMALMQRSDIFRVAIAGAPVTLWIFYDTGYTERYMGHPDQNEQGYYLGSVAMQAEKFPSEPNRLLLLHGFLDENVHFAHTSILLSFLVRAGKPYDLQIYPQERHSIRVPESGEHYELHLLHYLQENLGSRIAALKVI

Key:
HeLa wild-type cells = assay: Cell viability assay; assay type: cell-based; settings: tested form: TFA; for effect on cell viability without MMC: 10 µM, 72 h; for 95% confidence interval of difference: Figure S11b, Ctrl. vs. compound, Uncorrected Fisher's LSD
[1] = tested on: HEK293 cell lysates (proteome-wide targets of probe 9); assay type: binding, H. sapiens; settings: 50 µM competitor, 10 µM 9, HEK293 lysates; tested form: TFA
DPP9 [2] = target: T1, DPP9 (Homo sapiens, UniProt Q86TI2); settings: for IC50: read-out: IC50 DPP9, GP-AMC 250 µM, 10 nM enzyme, 45 min pre-incubation at 30 °C; for DPP9 activity [%]: replicates, tested form: TFA
DPP8 = DPP8 (Homo sapiens, UniProt Q6V1X1); settings: read-out: IC50 DPP8; GP-AMC 250 µM, 10 nM enzyme, 45 min pre-incubation at 30 °C
DPP9 [3] = target: T1, DPP9; assay: Time-dependent DPP9 inhibition kinetics; assay type: biochemical; settings: n=3, tested form: TFA

Q: Which results are given for `CCCCCCCCCCP(=O)(OCC)N1CCC[C@H](N)C1=O` (some centres unmarked)?
A: effect on cell viability without MMC (HeLa wild-type cells): Lower cell viability; 95% confidence interval of difference (HeLa wild-type cells): -8,549 to 5,070

Q: What does the source list for `CCCCCCCCCCCCP(=O)(OCC)N1CCC[C@H](N)C1=O` (some centres unmarked)?
A: competition of labeling by probe 9 [1]: solely DPP9 was competed; effect on cell viability without MMC (HeLa wild-type cells): Lower cell viability; 95% confidence interval of difference (HeLa wild-type cells): 0,3950 to 14,01

Q: With `N[C@H]1CCCN([P@](N)(=O)NS(=O)(=O)O)C1=O` as the compound, how does the IC50 (DPP9 [2]) read?
A: Its IC50 is 72.7 µM.

Q: And the IC50 (DPP8)?
A: Its IC50 is greater than 100 µM.

Q: For `N[C@@H]1CCCN([P@](N)(=O)NS(=O)(=O)O)C1=O`, which IC50 (DPP9 [2]) is on record?
A: Its IC50 is greater than 100 µM.

Q: And the IC50 (DPP8)?
A: The IC50 was greater than 100 µM.

Q: Which “DPP9 activity [%]” value (DPP9 [2]; c 1562.5 nM) does the source give for `C#CCCCCCCP(=O)(OCC)N1CCC[C@H](N)C1=O` (some centres unmarked) here?
A: Its value is 96.3619% and 93.8019% and 90.7073%.

Q: What about the “DPP9 activity [%]” value (DPP9 [2]; c 3125 nM) of the same compound?
A: Its value is 90.8045% and 89.28% and 92.2244%.

Q: What about the “DPP9 activity [%]” value (DPP9 [2]; c 6250 nM) of the same compound?
A: Its value is 89.6129% and 87.7806% and 84.876%.

Q: And the “DPP9 activity [%]” value (DPP9 [2]; c 12500 nM)?
A: The value was 80.4881% and 71.5519% and 73.1353%.

Q: What about the “DPP9 activity [%]” value (DPP9 [2]; c 25000 nM) of the same compound?
A: The value was 59.521% and 52.8796% and 53.8653%.

Q: What about the “DPP9 activity [%]” value (DPP9 [2]; c 50000 nM) of the same compound?
A: Its value is 32.4162% and 31.7268% and 33.9907%.

Q: What about the “DPP9 activity [%]” value (DPP9 [2]; c 100000 nM) of the same compound?
A: Its value is 16.7766% and 12.7762% and 13.8485%.

Q: What about the kobs (DPP9 [3]; c 12500 nM) of the same compound?
A: Its kobs is 3.81e-05 s⁻¹.

Q: And the kobs (DPP9 [3]; c 25000 nM)?
A: Its kobs is 5.42e-05 s⁻¹.

Q: What about the kobs (DPP9 [3]; c 50000 nM) of the same compound?
A: Its kobs is 8.79e-05 s⁻¹.

Q: What about the kobs (DPP9 [3]; c 100000 nM) of the same compound?
A: Its kobs is 0.000125 s⁻¹.

Several values for one entry are separate records, joined by “and”; a condition that tells them apart may be missing. Identical values can stand only once. Like-named read-outs stand apart in the source and are kept apart here.
